In patent publication US20240294879A1, “STEM CELL DIFFERENTIATION AND POLYMERS” (VERTEX PHARMACEUTICALS INCORPORATED, priority 2021, published 2024):

Test system: PDX1-positive, NKX6.1-positive cells
Test: Flow cytometry, PDX1-positive, NKX6.1-positive cells at Stage 4
Format: cell-based, human
Conditions: Stage 4, flow cytometry, first experiment
Description: Version A protocol is a 6-stage stepwise protocol. With Version A protocol, stem cells were treated with reagents in the following consecutive orders during the first five stages: Stage 1 (S1): Activin-A for 3 days and also CHIR99021 for the first 24 hr; Stage 2 (S2): KGF for 3 days; Stage 3 (S3): KGF, PDBU, Sant-1, retinoic acid (RA), Activin A, and Thiazovivin for 2 days, and also DMH-1 for the first day; Stage 4 (S4): KGF, Sant-1, Thiazovivin, Activin A, and RA for 6 days; Stage 5 (S5): XXI, Alk5i, GC-1, LDN-193189, Thiazovivin, Staurosporine, and DZNEP for 7 days, and also RA, Sant-1, and Betacellulin for the first 2 days; and Stage 6 (S6): HSA, ZnSO4, L-glutamic acid, formate, L-carnitine, taurine, acetate, beta-hydroxybutyrate, and biotin for 7-11 days, and also Alk5i, GC-1, LDN-193189, thiazovivin, staurosporine and DZNEP for the first four days. Throughout the differentiation stages from S1 to S6, HSA was supplemented to the culture medium: about 0.05% from S1 to S5, and 0.05% for the first three days in S6 and then increased to 1% for the remainder of S6.
In one experiment, PVA materials that have different hydrolyzation levels: 87-89%, 87-90%, and 99%, were used to replace HSA used in Version A (control). About 0.5% PVA was used from S1-S5, and PVA was not included in S6. […]

Substance: human serum albumin [HSA]
- percentage of PDX1-positive, NKX6.1-positive cells: 70.3%
